The source of these data is patent US20110009624A9, “BENZIMIDAZOLE COMPOUNDS HAVING GASTRIC ACID SECRETION INHIBITORY ACTION” (priority 2006, published 2011).

By UniProt entry, the sequences of proteins in these tests, tags left out.
UniProt P19156, whole entry: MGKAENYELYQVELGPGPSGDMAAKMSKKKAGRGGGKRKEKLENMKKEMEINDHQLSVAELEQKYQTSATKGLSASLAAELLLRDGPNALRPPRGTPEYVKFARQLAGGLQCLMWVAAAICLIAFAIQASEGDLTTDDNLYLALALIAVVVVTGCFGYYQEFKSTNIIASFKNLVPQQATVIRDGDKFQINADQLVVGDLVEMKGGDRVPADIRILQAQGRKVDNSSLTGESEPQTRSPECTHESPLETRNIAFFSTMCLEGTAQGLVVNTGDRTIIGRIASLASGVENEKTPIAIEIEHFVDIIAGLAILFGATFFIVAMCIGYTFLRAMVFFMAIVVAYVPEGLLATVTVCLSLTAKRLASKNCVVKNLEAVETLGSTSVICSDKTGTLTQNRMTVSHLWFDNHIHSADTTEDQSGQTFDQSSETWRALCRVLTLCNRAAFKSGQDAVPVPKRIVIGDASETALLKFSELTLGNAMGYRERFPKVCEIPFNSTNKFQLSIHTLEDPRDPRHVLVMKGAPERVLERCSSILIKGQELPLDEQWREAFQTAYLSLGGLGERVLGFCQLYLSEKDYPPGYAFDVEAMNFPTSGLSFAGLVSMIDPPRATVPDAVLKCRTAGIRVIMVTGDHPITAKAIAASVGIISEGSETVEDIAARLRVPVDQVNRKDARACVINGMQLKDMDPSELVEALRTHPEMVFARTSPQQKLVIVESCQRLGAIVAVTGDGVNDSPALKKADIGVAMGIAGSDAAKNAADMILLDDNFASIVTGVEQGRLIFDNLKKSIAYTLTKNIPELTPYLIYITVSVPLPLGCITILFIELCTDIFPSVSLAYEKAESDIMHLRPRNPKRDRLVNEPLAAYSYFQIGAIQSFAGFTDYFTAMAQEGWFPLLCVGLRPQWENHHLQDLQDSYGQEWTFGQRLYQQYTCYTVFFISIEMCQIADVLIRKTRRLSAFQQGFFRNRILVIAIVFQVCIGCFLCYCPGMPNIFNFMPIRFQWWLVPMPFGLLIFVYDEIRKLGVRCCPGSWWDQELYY
UniProt P18434, whole entry partner: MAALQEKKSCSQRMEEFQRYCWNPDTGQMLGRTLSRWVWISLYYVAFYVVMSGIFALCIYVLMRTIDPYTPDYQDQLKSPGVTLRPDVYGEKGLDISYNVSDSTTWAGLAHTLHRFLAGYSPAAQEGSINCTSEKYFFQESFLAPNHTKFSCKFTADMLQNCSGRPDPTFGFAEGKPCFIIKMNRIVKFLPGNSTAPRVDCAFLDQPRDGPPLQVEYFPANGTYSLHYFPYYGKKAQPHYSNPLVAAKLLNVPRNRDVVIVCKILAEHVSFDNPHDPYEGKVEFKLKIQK

pIC50: −log10 of the molar value.

The test has as its target H+, K+-ATPase (Sus scrofa, UniProt P19156). Briefly: H+, K+-ATPase activity inhibitory action. The settings on record: read-out: IC50 of H+, K+-ATPase activity; hog gastric mucosa enzyme, preincubation 30 minutes at 37° C., pH 6.1; tested form: sodium salt. As for the experimental part:
H^+, K^+-ATPase Activity Inhibitory Action
H^+, K^+-ATPase was prepared from a fundic gland area of fresh hog gastric mucosa using a variation of the Chang's method [Biochim. Biophys. Acta 464, 313 (1977)].
(1) The sodium salt of 2-[[[4-[3-hydroxy-2-(hydroxymethyl)propoxy]-3,5-dimethylpyridin-2-yl]methyl]sulfinyl]-1H-benzimidazole (Example 15) and (2) 3-[3-hydroxy-2-(hydroxymethyl)propoxy]-2,4-dimethyl-5H-pyrido[1′,2′,4,5][1,2,4]thiadiazino[2,3-a]benzimidazolium hexafluorophosphate (Example 16) were selected for the test compounds, and each was used after dissolving in methanol.
10 μL aliquots of various concentrations of the test compounds or solvent were mixed into 200 μL of 50 μg/mL H^+, K^+-ATPase, 100 μL of 10 mmol/L Pipes-Tris (pH 6.1) and 190 μL of distilled water followed by incubating for 30 minutes at 37° C., adding 150 μL of 100 mmol/L KCl (or distilled water) and 10 μL of 100 μg/mL gramicidin, and further incubating for 10 minutes. […] The amount of inorganic phosphoric acid that was released during this 10 minute period was measured in compliance with the method of Yoda and Hokin (Biochem. Biophys. Res. Commun., 40, 880, 1970). […]
Residual enzyme activity at each concentration of test compound was determined as the amount of H^+, K^+-ATPase activity as a percentage of the H^+, K^+-ATPase activity of a control group (solvent addition). […]

Take `Cc1cnc(C[S+]([O-])c2nc3ccccc3[nH]2)c(C)c1OCC(CO)CO` (stereo not shown): the pIC50 (usually −log10 of the IC50, conventionally taken in molar units) was 5.69.
